Values of other authors in patent US20100135905A1, “ASSESSMENT OF CANCER SUSCEPTIBILITY TO MOLECULAR TARGETED THERAPY BY USE OF RECOMBINANT PEPTIDES” (priority 2004, published 2010).

Chains of the proteins cited; added tags and fusions are not shown. Residues count along the entry.
UniProt P09619, 33-1106, species assumed: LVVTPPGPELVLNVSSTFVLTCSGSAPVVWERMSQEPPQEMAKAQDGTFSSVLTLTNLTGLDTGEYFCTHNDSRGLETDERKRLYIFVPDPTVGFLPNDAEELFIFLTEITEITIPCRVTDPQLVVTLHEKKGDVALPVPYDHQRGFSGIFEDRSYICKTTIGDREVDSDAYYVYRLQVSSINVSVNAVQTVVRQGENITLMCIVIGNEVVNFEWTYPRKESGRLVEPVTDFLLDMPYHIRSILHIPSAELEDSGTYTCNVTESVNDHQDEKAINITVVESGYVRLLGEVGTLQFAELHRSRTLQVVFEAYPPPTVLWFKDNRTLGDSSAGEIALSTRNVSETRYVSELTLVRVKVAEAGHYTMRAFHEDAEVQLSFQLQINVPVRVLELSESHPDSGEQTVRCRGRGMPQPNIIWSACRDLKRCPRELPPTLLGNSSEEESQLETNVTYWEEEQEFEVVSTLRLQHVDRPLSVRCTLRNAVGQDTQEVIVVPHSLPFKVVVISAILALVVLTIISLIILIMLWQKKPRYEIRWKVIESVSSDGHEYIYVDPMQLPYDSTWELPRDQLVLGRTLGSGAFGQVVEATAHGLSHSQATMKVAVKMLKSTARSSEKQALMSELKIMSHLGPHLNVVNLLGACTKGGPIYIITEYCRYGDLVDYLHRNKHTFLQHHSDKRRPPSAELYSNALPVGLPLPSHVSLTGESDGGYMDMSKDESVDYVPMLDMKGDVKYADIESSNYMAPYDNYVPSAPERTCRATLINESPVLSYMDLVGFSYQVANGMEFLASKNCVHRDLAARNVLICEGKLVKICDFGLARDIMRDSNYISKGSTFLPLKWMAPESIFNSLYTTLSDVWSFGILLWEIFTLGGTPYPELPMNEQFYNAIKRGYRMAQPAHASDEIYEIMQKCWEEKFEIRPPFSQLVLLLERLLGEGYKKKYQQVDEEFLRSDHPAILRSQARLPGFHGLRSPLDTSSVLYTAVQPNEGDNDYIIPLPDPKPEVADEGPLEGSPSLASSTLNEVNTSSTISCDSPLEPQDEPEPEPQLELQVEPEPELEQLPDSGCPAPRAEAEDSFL

Molecular target: PDGFRβ (Homo sapiens, UniProt P09619)
Conditions: biochemical and cellular assays; cited from earlier work

## CCN(CC)CCNC(=O)c1c(C)[nH]c(/C=C2\C(=O)Nc3ccc(F)cc32)c1C [SU11248]
  Inhibition of PDGFRβ: low nM
